In patent US5486526A, “Histamine H3 -receptor antagonists and therapeutic uses thereof” (The University of Toledo, priority 1993, dated 1996):
Read-outs that look alike come from different tables or passages of the source.

Protein sequences, listed by entry. Tags and fused reporters are not part of them. Lines headed by an entry give the natural chain unless they say otherwise; changes in a name come on top.
UniProt Q9QYN8: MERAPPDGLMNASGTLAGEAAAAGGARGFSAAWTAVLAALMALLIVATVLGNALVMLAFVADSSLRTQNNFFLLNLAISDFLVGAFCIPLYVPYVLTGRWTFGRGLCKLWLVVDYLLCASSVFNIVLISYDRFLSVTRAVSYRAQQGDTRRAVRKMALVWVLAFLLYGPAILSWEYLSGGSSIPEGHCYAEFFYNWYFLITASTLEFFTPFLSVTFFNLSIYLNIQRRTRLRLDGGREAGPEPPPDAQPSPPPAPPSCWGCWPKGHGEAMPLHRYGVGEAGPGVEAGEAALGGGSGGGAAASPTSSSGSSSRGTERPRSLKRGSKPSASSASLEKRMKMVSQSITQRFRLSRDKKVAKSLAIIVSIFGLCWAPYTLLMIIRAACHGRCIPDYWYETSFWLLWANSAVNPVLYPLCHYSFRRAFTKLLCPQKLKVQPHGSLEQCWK

Molecular target: T1, histamine H3 receptor (Rattus norvegicus, UniProt Q9QYN8)
T1 construct: from tissue
Assay: Inhibition of [^3 H]-N-alpha-methylhistamine binding to rat brain membranes
Experimental: A series of compounds were prepared and tested for their histamine H3 receptor antagonist activity. The antagonist activity of the compounds was detected by observing inhibition of (^3 H)-N-(alpha)methylhistamine activity on rat brain membranes.
The various compounds were tested for the ability to bind to the histamine H3 receptor. A binding assay in a rat brain membrane preparation, based on inhibition of binding of [^3 H]-N-alpha-methylhistamine using excess unlabeled alpha-methylhistamine to account for nonspecific binding, was developed.

For `O=C(CCCCC1CCCCC1)N1CCC(c2c[nH]cn2)CC1` [Compound 1, 4-(1-cyclohexylvaleroyl-4-piperidyl)-1H-imidazole], the IC50 was 0.023 ± 0.006 µM and the IC50 (read-out: affinity, repeated in text) was 0.023 µM.
